Where two headings read alike, the source gives them in different places. Marks after values point to notes of the source that are not given here.
Legend:
[1] = molecular target: T1, PARP-HSA Enzyme (PARP1/2) (Homo sapiens, UniProt P09874)
PARP1 mRNA (PARP1/ACTB) = type: cell-based, human; settings: UWB1.289, UWB1.289 + BRCA1 and OVCAR-3, vs untreated cells, 20 and 40 μΜ, 72 h
UWB1.289 + BRCA1 [2] = assay: Sister chromatid exchanges (SCEs) assay, genotoxicity and PRI
UWB1.289 + BRCA1 [3] = assay: cells; settings: Homo sapiens, UWB1289, 48 h; for GI50: read-out: GI50 ±SEM (50% inhibition of cell growth, cytostatic); for IC50: read-out: IC50 ±SEM (50% cytocidal effect, cytotoxic)
UWB1.289 + BRCA1 [4] = tested on: UWB1.289 + BRCA1
[5] = molecular target: T1, PARP-HSA Enzyme (PARP1/2); assay: biochemical
UWB1.289 + BRCA1 [6] = settings: human

By UniProt entry, the sequences of proteins in these tests, tags left out.
UniProt P09874, whole entry: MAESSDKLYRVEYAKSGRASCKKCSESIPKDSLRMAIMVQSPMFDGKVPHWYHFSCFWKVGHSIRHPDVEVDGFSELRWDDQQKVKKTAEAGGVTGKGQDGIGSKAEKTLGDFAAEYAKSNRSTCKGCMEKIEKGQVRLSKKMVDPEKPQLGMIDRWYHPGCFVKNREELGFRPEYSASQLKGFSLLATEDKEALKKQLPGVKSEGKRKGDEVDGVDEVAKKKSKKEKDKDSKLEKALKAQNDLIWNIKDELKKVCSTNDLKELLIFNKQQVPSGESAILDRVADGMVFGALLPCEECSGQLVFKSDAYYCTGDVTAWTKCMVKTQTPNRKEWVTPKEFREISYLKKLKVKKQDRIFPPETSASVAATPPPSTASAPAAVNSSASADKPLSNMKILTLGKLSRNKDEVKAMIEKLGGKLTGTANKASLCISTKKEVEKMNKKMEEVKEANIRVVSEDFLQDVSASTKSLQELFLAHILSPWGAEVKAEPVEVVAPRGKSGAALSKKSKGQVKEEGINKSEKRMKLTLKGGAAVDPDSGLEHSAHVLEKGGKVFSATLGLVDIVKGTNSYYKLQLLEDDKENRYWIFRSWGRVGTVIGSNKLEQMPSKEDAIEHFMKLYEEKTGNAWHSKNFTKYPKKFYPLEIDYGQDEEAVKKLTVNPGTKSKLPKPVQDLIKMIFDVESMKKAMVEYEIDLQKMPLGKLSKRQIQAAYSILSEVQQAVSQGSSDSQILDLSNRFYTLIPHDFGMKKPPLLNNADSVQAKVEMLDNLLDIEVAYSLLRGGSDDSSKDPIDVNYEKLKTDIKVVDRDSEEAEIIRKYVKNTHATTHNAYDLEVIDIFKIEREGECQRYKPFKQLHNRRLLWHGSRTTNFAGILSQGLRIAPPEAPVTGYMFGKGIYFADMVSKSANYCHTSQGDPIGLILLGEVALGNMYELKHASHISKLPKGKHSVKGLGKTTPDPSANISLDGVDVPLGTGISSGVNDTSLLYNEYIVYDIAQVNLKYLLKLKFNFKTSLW

Compound	Vmax (Michaelis Menten's model of PARP inhibition curve, ± SEM) [1]	increase of PARP1/ACTB mRNA ratio (PARP1 mRNA (PARP1/ACTB))	PRI (Proliferation Rate Index) (UWB1.289 + BRCA1 [2])	GI50 (UWB1.289 + BRCA1 [3])	IC50 (UWB1.289 + BRCA1 [3])	TGI ±SEM (100% cell growth inhibition, cytostatic) (UWB1.289 + BRCA1 [4])	IC50 [5]	SCE/Chromosome ± SEM (UWB1.289 + BRCA1 [6])	SCEs/metaphase ± SEM (UWB1.289 + BRCA1 [6])	PRI (Proliferation Rate Index) (UWB1.289 + BRCA1 [2]; UWB1.289 +BRCA1, 3 μM)	SCE/Chromosome ± SEM (UWB1.289 + BRCA1 [2]; UWB1.289 +BRCA1, 3 μM)	SCEs/metaphase ± SEM (UWB1.289 + BRCA1 [2]; UWB1.289 +BRCA1, 3 μM)	Vmax (Michaelis Menten's model of PARP inhibition curve, ± SEM) ([1]; PARP 0.6 units/well)	TGI ±SEM (100% cell growth inhibition, cytostatic) (UWB1.289 + BRCA1 [4]; UWB1.289 + BRCA1, 48 h treatment, MTT)
CC12CCC3C(NC(=O)C=C4CC(OC(=O)CCOc5ccc(N(CCCl)CCCl)cc5)CCC43C)C1CCC(=O)N2 (stereo not shown) [ASA-B, 11a,13a-dimethyl-2,6-dioxo-2,3,4,4a,4b,5,6,8,9,10,11,11a,11b,12,13,13a-hexadecahydro-1H-benzo[4,5]azepino [2,3-f]quinolin-9-yl 3-(4-(bis(2-chloroethyl)amino)phenoxy)propanoate]	147.817 ± 14.93	42–50 fold	1.88 *	20 ± 1.86 µM	95 ± 9.03 µM	72 ± 6.71 µM	35.2 ± 3.78 µM	0.89 ± 0.047	65.95 ± 3.47					
CC(C)CCCC(C)[C@H]1CCC2C3NC(=O)C=C4C[C@@H](OC(=O)CCOc5ccc(N(CCCl)CCCl)cc5)CC[C@]4(C)C3CC[C@@]21C (stereo partly drawn) [ASA-C, 7a,9a-dimethyl-10-((R)-6-methylheptan-2-yl)-2-oxo-1,2,4,5,6,7,7a,7b,8,9,9a,10,11,12,12a,12b-hexadecahydrobenzo[d]indeno[4,5-b]azepin-5-yl 3-(4-(bis(2-chloroethyl)amino)phenoxy)propanoate]			2.08	> 100 µM	> 100 µM	>100 µM	166 ± 19.8 µM	0.21 ± 0.02	15.32 ± 1.14					
O=C(c1cc(Cc2n[nH]c(=O)c3ccccc23)ccc1F)N1CCN(C(=O)C2CC2)CC1 [Olaparib]				> 100 µM	> 100 µM	>100 µM				2.07	0.33 ± 0.025	24.75 ± 1.86		
C[C@]12CC[C@H](OC(=O)CCOc3ccc(N(CCCl)CCCl)cc3)CC1=CC(=O)NC1C2CC[C@]2(C)C(=O)CCC12 (stereo partly shown) [ASA-A, 7a,9a-dimethyl-2,10-dioxo-1,2,4,5,6,7,7a,7b, 8,9,9a,10,11,12,12a,12b-hexadecahydrobenzo[d]indeno [4,5-b]azepin-5-yl 3-(4-(bis(2-chloroethyl)amino)phenoxy)propanoate]	124.644 ± 60.83		1.85 *	22 ± 2.01 µM	76 ± 6.66 µM	54 ± 4.33 µM	59.6 ± 6.42 µM	0.86 ± 0.05	63.86 ± 3.62					
NC(=O)c1cccc(N)c1 [3-AB, 3-Aminobenzamide, reference compound]				> 100 µM	> 100 µM								74.130 ± 4.16	>100 µM

Source: PMC8394033, “Cytocidal Antitumor Effects against Human Ovarian Cancer Cells Induced by B-Lactam Steroid Alkylators with Targeted Activity against Poly (ADP-Ribose) Polymerase (PARP) Enzymes in a Cell-Free Assay” (Biomedicines, 2021)
